# Binding of CDR-mutated scFvs to a peptide of the spike HR2 region

Antigen: PDVDLGDISGINAS, a 14-residue peptide of the SARS-CoV-2 spike HR2 region.

Parent scFv Ab-14: VH joined to VL by a (GGGGS)3 linker. Changes lie in the light chain CDRs alone.
VH: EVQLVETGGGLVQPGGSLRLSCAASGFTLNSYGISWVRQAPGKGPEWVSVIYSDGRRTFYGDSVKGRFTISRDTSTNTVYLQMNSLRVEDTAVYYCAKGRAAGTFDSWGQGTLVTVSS
VL: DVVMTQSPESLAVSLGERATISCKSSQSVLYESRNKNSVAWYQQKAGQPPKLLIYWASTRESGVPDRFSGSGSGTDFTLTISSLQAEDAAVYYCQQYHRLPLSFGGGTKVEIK

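The variants were designed computationally from a first round of random CDR variants and then made and measured. Their group label is 14L_GP_Gibbs (GP: Gaussian process model; Gibbs: Gibbs sampling; a sequence that several methods proposed may carry one label only). The scFvs were displayed on barcoded MATa yeast, the peptide on MATalpha yeast. The frequency of each diploid, read from paired DNA barcodes, reflects how well the two displayed proteins bind. Scores were corrected for input abundance and mapped to Kd with protein pairs of known affinity run in the same pool. There are six technical replicates.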

Substitutions are numbered in sequence along the VL above, starting at 1 (not Kabat). Numbers give log10(Kd / nM), so 0 is 1 nM and 3 is 1 µM. Smaller is tighter. The mean shown is taken over the replicates in which the pair was detected. "n.d." marks a missing value. The strain was present, yet no cells mated with the target were sequenced in that replicate, which points to weak or no binding. Of ten entries with the parent sequence, four were seen in most replicates (averages 0.34 to 2.37), three in one and three in none, so single entries are noisy. Three control strains display no target. For all light chain designs, 4% of the pairings with them gave a signal, with a median of 2.64 and one signal in twenty below 1.59, so weak values seen in few replicates may be background. For each scFv, signals with the empty controls are counted beside the result, with their mean in brackets. Values of this round are not directly comparable with the first-round values of the same sequences. In the paper, a design with two or fewer of six values counts as a poor binder.

| # | changes | log10 Kd, replicates | log10 Kd (nM), mean | control signals |
|---|---|---|---|---|
| 1 | S26P V29H E32G W56E T59E | 0.84 / 0.41 / 0.57 / 0.34 / 0.36 / 0.65 | 0.53 | 0 of 18 |
| 2 | S25L S26E V29E N37Q W56N T59E | 0.03 / -0.10 / 0.09 / -0.12 / -0.09 / -0.06 | -0.04 | 1 of 18 (2.89) |
| 3 | S26M V29C Y31G K36C W56S S62L | 0.62 / 0.36 / 0.58 / 0.33 / 0.66 / 0.28 | 0.47 | 1 of 18 (2.56) |
| 4 | S25V V29E N35D K36A S38N W56N S62N | 0.42 / 0.06 / 0.16 / 0.19 / 0.11 / 0.22 | 0.19 | 2 of 18 (2.39) |
| 5 | S25F S26E Q27M L30P S33Q W56H T59V | -0.06 / -0.24 / -0.22 / -0.32 / -0.13 / 0.02 | -0.16 | 1 of 18 (3.73) |
| 6 | S26P V29H L30D W56N T59E | 0.19 / 0.12 / 0.13 / 0.18 / 0.17 / 0.16 | 0.16 | 2 of 18 (3.57) |
| 7 | S25L S26E Q27F Y31G S38A W56S T59Q S62Q | -0.19 / -0.21 / -0.44 / -0.28 / -0.41 / -0.34 | -0.31 | 0 of 18 |
| 8 | S25W S26M V29D L30D Y31Q K36H W56H E61C S62Q | 0.48 / 0.19 / 0.49 / 0.51 / 0.57 / 0.56 | 0.47 | 0 of 18 |
| 9 | S25L S26E Q27W V29Q K36C W56N S62E | 0.63 / 0.89 / 0.61 / 0.41 / 0.51 / 0.69 | 0.62 | 0 of 18 |
| 10 | S25M S26M V29Q N35M K36S S38A W56N T59Q E61M | -0.08 / -0.39 / -0.23 / -0.45 / -0.21 / -0.11 | -0.24 | 0 of 18 |
| 11 | S25V Q27P V29Q E32W S38A W56Q S58N S62T | 0.39 / 0.34 / 0.18 / 0.37 / 0.24 / 0.39 | 0.32 | 1 of 18 (2.24) |
| 12 | S25L V29W L30S S33W N37M W56N T59Q E61L | 0.89 / 0.74 / 0.76 / 0.60 / 0.91 / 0.94 | 0.81 | 1 of 18 (2.69) |
| 13 | S25V S26Q S28W V29Q S38A W56N E61C S62D | 0.07 / -0.26 / -0.19 / -0.34 / -0.17 / -0.03 | -0.15 | 0 of 18 |
| 14 | Q27F V29Q L30D S33D W56S S58T T59Q | -0.13 / -0.39 / -0.22 / -0.50 / -0.18 / -0.19 | -0.27 | 0 of 18 |
| 15 | S25L S26D Q27A S28W V29Q L30D N37A W56Q | -0.11 / -0.25 / -0.40 / -0.66 / -0.26 / -0.48 | -0.36 | 1 of 18 (1.65) |
| 16 | S25V Q27I S28L V29D Y31G E32G S33D W56H T59L S62Q | -0.02 / -0.01 / -0.25 / -0.37 / -0.01 / 0.01 | -0.11 | 0 of 18 |
| 17 | S25L Y31V E32G S33D N37S W56Q S62M | 0.41 / 0.17 / -0.03 / -0.26 / 0.06 / 0.18 | 0.09 | 0 of 18 |
| 18 | S25L V29M L30E W56Q S62H S103M | 0.02 / -0.14 / 0.07 / -0.42 / 0.10 / -0.17 | -0.09 | 0 of 18 |
| 19 | S25F S26M V29W Y31G E32Q R34L W56N T59Q S62H | 0.02 / -0.12 / -0.13 / -0.26 / -0.06 / -0.04 | -0.10 | 0 of 18 |
| 20 | Q27G V29Q K36S W56N S62L Q96D | 0.47 / 0.46 / 0.69 / 0.21 / 0.34 / 0.51 | 0.45 | 1 of 18 (2.62) |
| 21 | S25L S26Y Q27Y V29D L30G Y31G E32L S33Q W56E S62M | -0.04 / -0.32 / -0.23 / -0.43 / -0.35 / -0.17 | -0.25 | 2 of 18 (2.28) |
| 22 | K24V S25L S26Q S28L V29G S33P W56S E61L | 0.85 / 1.06 / 0.60 / 0.83 / 0.72 / 0.81 | 0.81 | 2 of 18 (2.21) |
| 23 | S25Y S26E Q27Y V29E Y31E E32L K36S W56N S62E | -0.08 / 0.01 / -0.28 / -0.28 / -0.21 / 0.08 | -0.12 | 0 of 18 |
| 24 | S25M S26A S28G V29W L30M N35M W56N T59V S62M | -0.02 / 0.05 / 0.17 / -0.10 / 0.27 / 0.47 | 0.14 | 0 of 18 |
| 25 | S25M L30W S33Q K36F W56N A57G E61F | 0.20 / 0.07 / -0.05 / -0.04 / -0.08 / 0.24 | 0.06 | 1 of 18 (2.14) |
| 26 | S25F S26V V29D L30D W56Q T59Q S62Q | 0.10 / -0.12 / 0.03 / -0.18 / -0.12 / 0.07 | -0.04 | 2 of 18 (2.03) |
| 27 | S25L S26M Q27Y V29K L30E S33Q W56E | 0.25 / 0.38 / -0.17 / 0.21 / 0.24 / 0.20 | 0.19 | 0 of 18 |
| 28 | S25L Q27G V29Q W56N H98R | -0.53 / -0.52 / -0.73 / -0.66 / -0.62 / -0.55 | -0.60 | 1 of 18 (3.05) |
| 29 | S25F V29E S33E K36Q W56G E61L | -0.11 / 0.10 / -0.17 / -0.44 / -0.26 / -0.32 | -0.20 | 0 of 18 |
| 30 | K24L S25L S26P V29M L30E W56A | -0.07 / 0.10 / 0.04 / -0.12 / 0.13 / 0.28 | 0.06 | 0 of 18 |
| 31 | S25L Q27G V29W E32Q K36S S38A W56E T59Q S62Q | 0.02 / -0.11 / -0.09 / -0.28 / -0.12 / 0.10 | -0.08 | 1 of 18 (2.01) |
| 32 | S25A S26Q Q27D V29E E32S N35D K36D W56D T59K | 0.23 / 0.07 / 0.11 / 0.04 / 0.01 / 0.40 | 0.14 | 0 of 18 |
| 33 | S26E V29S L30W S33D W56N T59L E61C | 0.37 / 0.73 / 0.03 / -0.15 / -0.24 / -0.12 | 0.10 | 0 of 18 |
| 34 | S25I Q27I S28G L30W Y31G E32G S33D W56D | 0.36 / 0.24 / 0.17 / 0.04 / -0.05 / -0.09 | 0.11 | 0 of 18 |
| 35 | S25Q S26Q Q27G S28G V29Q L30D E32S N35M K36D W56D | n.d. / n.d. / n.d. / n.d. / n.d. / n.d. | n.d. | 0 of 18 |
| 36 | K24H S25V Y31Q S33Q W56E T59Q S62R | 0.57 / 0.64 / 0.50 / 0.33 / 0.57 / 0.73 | 0.56 | 3 of 18 (3.14) |
| 37 | S25L S26E Q27G S28Q V29H K36A W56N E61M H98K | -0.44 / -0.42 / -0.37 / -0.72 / -0.60 / -0.42 | -0.49 | 1 of 18 (1.67) |
| 38 | S25G S28W V29Q S38N W56N S62M | -0.28 / -0.45 / -0.53 / -0.46 / -0.62 / -0.40 | -0.46 | 2 of 18 (2.18) |
| 39 | S25L S26P V29D S33G K36S W56N A57G E61F | 0.10 / 0.42 / -0.01 / 0.43 / 0.43 / 0.28 | 0.27 | 0 of 18 |
| 40 | S25L Q27G V29W N35V S38N W56D S58H T59Q Q96M | 1.17 / 1.23 / 1.06 / 1.12 / 1.37 / 2.13 | 1.35 | 0 of 18 |
| 41 | S25L Q27E E32Q R34Q K36W S38Q W56E E61M | 0.04 / 0.03 / 0.06 / -0.19 / -0.09 / 0.13 | 0.00 | 1 of 18 (2.97) |
| 42 | S25L V29W E32L K36S S38A W56E T59Q S62Q | 0.14 / -0.11 / -0.09 / -0.33 / 0.01 / 0.17 | -0.03 | 1 of 18 (2.30) |
| 43 | S25I V29E Y31E S58T T59V S62A | 0.48 / 0.57 / 0.29 / 0.41 / 0.13 / 0.57 | 0.41 | 3 of 18 (3.36) |
| 44 | S25L V29F N37M W56N S58D S62E | 0.09 / -0.08 / 0.03 / -0.19 / 0.07 / -0.01 | -0.02 | 1 of 18 (3.98) |
| 45 | S25I V29E L30Y S33D R34A N37M W56S E61L | 0.15 / -0.11 / -0.19 / -0.33 / -0.23 / -0.11 | -0.13 | 1 of 18 (2.01) |
| 46 | S25Q L30E Y31Q R34S W56N S62Q | 0.55 / -0.01 / 0.17 / 0.35 / -0.01 / 0.22 | 0.21 | 3 of 18 (2.66) |
| 47 | S25L S26Q Q27I L30E K36Q W56S T59Y E61L S62D | n.d. / n.d. / 1.81 / 1.61 / n.d. / n.d. | 1.71 | 0 of 18 |
| 48 | S25L S26Q S28Q V29D L30E W56N T59C E61W S62Q | 2.19 / 0.32 / 1.35 / 0.38 / 1.78 / 2.25 | 1.38 | 0 of 18 |
| 49 | S25L S26M S28M V29M L30P K36A S38N W56N S62E | 1.13 / 0.68 / 0.71 / 0.70 / 0.89 / 1.11 | 0.87 | 0 of 18 |
| 50 | S25Q V29F K36S W56D T59Q S62D Q96D | 0.43 / 0.14 / 0.41 / 0.27 / -0.10 / 0.44 | 0.26 | 0 of 18 |
| 51 | S25Y Q27G V29Y Y31G S33Q K36A W56N S62E | 0.17 / -0.04 / -0.03 / -0.15 / -0.05 / 0.19 | 0.01 | 5 of 18 (3.39) |
| 52 | S25M S26P S33Q W56N A57G E61F | 0.18 / -0.13 / 0.04 / -0.22 / -0.24 / 0.20 | -0.03 | 0 of 18 |

Excerpt, the first 8 entries:

changes	log10 Kd, replicates	log10 Kd (nM), mean	control signals
S26P V29H E32G W56E T59E	0.84 / 0.41 / 0.57 / 0.34 / 0.36 / 0.65	0.53	0 of 18
S25L S26E V29E N37Q W56N T59E	0.03 / -0.10 / 0.09 / -0.12 / -0.09 / -0.06	-0.04	1 of 18 (2.89)
S26M V29C Y31G K36C W56S S62L	0.62 / 0.36 / 0.58 / 0.33 / 0.66 / 0.28	0.47	1 of 18 (2.56)
S25V V29E N35D K36A S38N W56N S62N	0.42 / 0.06 / 0.16 / 0.19 / 0.11 / 0.22	0.19	2 of 18 (2.39)
S25F S26E Q27M L30P S33Q W56H T59V	-0.06 / -0.24 / -0.22 / -0.32 / -0.13 / 0.02	-0.16	1 of 18 (3.73)
S26P V29H L30D W56N T59E	0.19 / 0.12 / 0.13 / 0.18 / 0.17 / 0.16	0.16	2 of 18 (3.57)
S25L S26E Q27F Y31G S38A W56S T59Q S62Q	-0.19 / -0.21 / -0.44 / -0.28 / -0.41 / -0.34	-0.31	0 of 18
S25W S26M V29D L30D Y31Q K36H W56H E61C S62Q	0.48 / 0.19 / 0.49 / 0.51 / 0.57 / 0.56	0.47	0 of 18

Reference: Li et al. 2023, doi:10.1038/s41467-023-39022-2. File: FLAb, binding data.